Assay results as given in patent publication US20060094649A1 (published 2006).

Legend:
HLA-B*4403 [1] = molecular target: HLA-B*4403 (human); assay: competition vs labelled reference peptide on HLA class I
HLA-B*4403 [2] = molecular target: HLA-B*4403 (human); assay: competition with labeled probe peptide, purified HLA class I

B1: RELQLRSLTEI (Her2/neu position 138, 11-mer) (peptide)
peptide: RELQLRSLTEI
B1 showed an IC50 (HLA-B*4403 [1]) of 0.99 nM.

B2: LESEFQAAL (MAGE3, position printed 301) (peptide)
peptide: LESEFQAAL
In the case of B2, the IC50 (HLA-B*4403 [2]) is reported as 1 nM.
